Test system: M (non-selective) muscarinic receptor
Details: for IC50: read-out: Transporter and Muscarinic Receptor Binding IC50 Muscarinic, Table 2, ten concentrations

Q: N#Cc1ccc2c(c1)COC2(CCCN)c1ccc(F)cc1 (racemic) [Racemic didesmethylcitalopram, 3-5-Cyano-1-(4-fluorophenyl)-1,3-dihydro-isobenzofuran-1-yl-propyl amine] was tested. Which “inhibition of [3H]-QNB binding to the nonselective muscarinic receptor” value (at 1 μM) did it give?
A: 12%

Q: With CNCCC[C@]1(c2ccc(F)cc2)OCc2cc(C#N)ccc21 [(R)(−)-Desmethylcitalopram] as the compound, how does the IC50 read?
A: 15.4 µM

Q: With N#Cc1ccc2c(c1)CO[C@]2(CCCN)c1ccc(F)cc1 [(R)(−)-Didesmethylcitalopram] as the compound, how does the IC50 read?
A: 34.9 µM

Q: CNCCC[C@@]1(c2ccc(F)cc2)OCc2cc(C#N)ccc21 [(S)(+)-Desmethylcitalopram] was tested. Which IC50 did it give?
A: 5.29 µM

Q: How did the IC50 turn out when N#Cc1ccc2c(c1)CO[C@@]2(CCCN)c1ccc(F)cc1 [(S)(+)-Didesmethylcitalopram] was run?
A: 15.8 µM
